Reference: US20240316213A1, “ANTIBODY-PROTAMINE FUSIONS AS TARGETING COMPOUNDS OF A PROTAMINE-BASED NANOPARTICLE” (Universität Münster, priority 2021, published 2024)
Read-outs that look alike come from different tables or passages of the source.

Legend:
A549 cells = assay: Colony formation assay, A549; type: cell-based; settings: more than 50×SMCC-protamine / highest concentrations
Text: FIG. 20: Colony-formation assays in soft agar of NSCLC cells treated with different carriers of siRNA with and without free protamine. […] B: SK-LUI cells. […] Shown here are photos of colony assays and mean of three independent experiments+/−SD. Asterisks indicate significant differences (P<0.05, 2-sided T-test).
As a functional assay, we compared the efficiency of the different conjugation products to inhibit the colony formation of A549 cells upon knockdown of the oncogene KRAS. We also compared this to the equal amount of free SMCC-protamine without conjugated cetuximab to elucidate the impact of the unbound SMCC-protamine alone (FIG. 40 S-X). […] SMCC-protamine alone cannot induce inhibition of colony formation via KRAS knockdown at any concentration (FIG. 40 S-X).

RD cells = assay: Internalization of Alexa488-siRNA, FACS; type: cell-based
Experimental: FIG. 6: Rhabdomyosarcoma (RMS) cell lines can be targeted by antibody-siRNA complexes. A: Expression of cell surface receptors EGFR and IGF1R was tested in two RMS cell lines, IGFR1R and EGFR is expressed on both cell lines. […] RH-30 in turn were marked by anti IGF1R directed GR11L-protamine (P/P) shuttled Alexa488 control siRNA.
To check targeting efficiency of our antibody constructs in RMS cell lines, we treated the ERMS EGFR^+ cell line RD with anti-EGFR antibody (cetuximab)-siRNA complexes and the ARMS IGF1R^+ cell line RH-30 with anti-IGF1R-siRNA complexes (FIG. 6). Both cell lines express IGF1R and EGFR to variable levels (FIG. 6A), and according to their highest expression, RD cells internalize preferentially anti-EGFR-Alexa488-siRNA (FIGS. 6 B and C, upper panels) whereas RH-30 cells internalize preferentially anti-IGF1R-Alexa488 siRNA complexes (FIG. 6 B, lower panel).

[1] = Particle size and zeta-potential by dynamic light scattering (DLS); type: physicochemical; settings: after a few hours, 0 to 24 hrs incubation at room temperature
siRNA = assay: Bandshift (electro-mobility shift) assay, siRNA binding; settings: preparation containing free SMCC-protamine
Experimental: We analysed the siRNA binding capacity of these different conjugations by our routine bandshift assays (FIG. 40A-F).
The principle of genetic fusion between cell-determining targeting moiety and the electrostatic siRNA binder protamine such as presented in Song et al. was evaluated by applying this strategy to in a variation to target e.g. leukemic blasts (FIG. 48). The well-known anti-CD33 receptor antibody gemtuzumab was expressed with (FIG. 51) and without a direct genetic fusion to protamine as a siRNA carrier.

ASO = assay: Bandshift assay, antisense oligonucleotide binding; settings: one hour at room temperature or five minutes at 37° C.
Text: To check if the antibody-protamine nanoparticle can also be used to transport single-stranded oligonucleotides, which are currently used as an alternative tool to knockdown gene expression. These synthetic antisense single-stranded oligonucleotides (“ASO”) are as short as siRNA and it is hypothesized that they bind to the αEGFR-mAB-protamine conjugate analogous to siRNA. We therefore performed a band shift assay using a control ASO and saw that 1 mol αEGFR-mAB-protamine conjugate can bind at least 8 to 32 mol of ASO when incubated for one hour at room temperature or five minutes at 37° C. (FIG. 12).

cetuximab-protamine: anti-EGFR antibody cetuximab chemically conjugated via sulfo-SMCC to protamine, preparation containing free SMCC-protamine
unspecific toxicity in colony assay (A549 cells): unspecifically toxic | RD cells with internalized Alexa488-siRNA (RD cells): up to 90% | RD cells with internalized Alexa488-siRNA (RD cells; listed as Cetuximab-protamine (EGFR-mAB-P containing free SMCC-protamine (/P/P))): > 90% | size of assembled macrostructures (DLS) [1]: ~500 nm | siRNA bound per mol of antibody carrier (siRNA): 8 mol | siRNA bound per mol of antibody carrier (siRNA; listed as anti-EGFR-mAB-protamine/free protamine (P/P) complex): up to 8 mol | ASO bound per mol conjugate (ASO): 8 to 32 mol
